Screening results deposited in PubChem BioAssay by several laboratories.
Most compounds without a hit are left out; they make up all but 2.3% or so of the library.
NRP1-CendR mod – modulators of CendR peptide binding to NRP-1, primary screen, biochemical, fluorescence polarization, uHTS. AID 602438, 2012. 0.85% of 360,000 active. inhibition, % at 25 µM. FAM-RPARPAR peptide binding to NRP-1;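 active means inhibition or corrected inhibition above about 18%, plus a signal ratio from 0.5 to 1.5, limit read from the data, passing the limit was not always enough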
ASAP1 GAP inh – inhibitors of human ASAP1 ArfGAP activity, primary screen, biochemical, fluorescence polarization; Arf-GAP with SH3 domain, ANK repeat and PH domain-containing protein 1 (Homo sapiens), …; ASAP1-stimulated ARF1 GTP hydrolysis, GDP FP detection; inhibition, % at 16.5 µM; 0.19% of 360,000 active; in the data active means inhibition above about 25%;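 further: 0% = vehicle with enzyme and substrate and 100% = no enzyme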
MC4R antagonist – MC4R antagonists of cAMP signaling, primary screen, cell-based, TR-FRET, antagonist arm of biased-ligand search; MC4R-expressing cells, MTII-stimulated cAMP, LANCE TR-FRET; inhibition, % at 6.5 µM; 0.48% of 360,000 active;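 active means inhibition above its plate's cutoff, the mean of tested wells on that plate plus 3 SD, cut at about 29% in these data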;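 further: 0% = Melanotan II alone and 100% = Melanotan II plus saturating MCL0020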
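System: U2OS cells stably expressing human melanocortin 4 receptor (MC4R). Reagent: Melanotan II challenge after compound preincubation. Doses: 6.5 µM. Times: 30-min compound, 1-h challenge, 1-h detection, room temperature. Measured by: TR-FRET with Eu-cAMP and labeled anti-cAMP, 671 nm. Replicates: singlicate.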
UUG fidelity – modulators of yeast start codon fidelity, primary screen, whole organism, S. cerevisiae, single point, plate reader | AID 602363, 2012 | actives 0.13% (n = 350,000) | activity score, % at 18.7 µM | S. cerevisiae UUG-firefly luciferase reporter, luminescence/redox ratio;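 active means replicate mean at a twofold rise or more, about +100% in these data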;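 further: firefly luciferase made from a UUG start codon reports start codon fidelity; reporter light over untreated wells divided by growth signal over untreated wells; some hits fall short of that in this replicate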
MC4R ag barr – MC4R agonists recruiting beta-arrestin, primary screen, cell-based, luminescence, agonist arm of biased-ligand search | Melanocortin receptor 4 (Homo sapiens), P32245 | U2OS MC4R beta-arrestin complementation; percent of melanotan II response, DMSO zero | activation, % at 8.9 µM | 0.98% of 360,000 active | AID 540308, 2011;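 active means activation above a per-plate cutoff, the mean activation of sample wells on that plate plus 3 SD, cut at about 8% in these data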
ARFGAP1 inh – inhibitors of rat ARFGAP1 GAP activity, primary screen, biochemical, fluorescence polarization, GDP tracer. Arfgap1-stimulated ARF1 GTP hydrolysis, GDP FP detection. 0.26% of 360,000 active. ADP-ribosylation factor GTPase-activating protein 1 (Rattus norvegicus), Q62848. inhibition, % at 16.5 µM. AID 651572, 2012;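 active means inhibition above a per-plate limit, mean inhibition of low control wells plus 3 SD, cut at about 25% in these data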;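 further: 0% = DMSO wells with enzyme and 100% = wells lacking Arfgap1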
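material = rat Arfgap1 catalytic domain, aa 1-136 | also added = human ARF1(Δ1-17)-GTP substrate | compound dosing = one concentration, 16.5 µM, DMSO 1.26% | times = GTP hydrolysis reaction 2 h at 25 °C | measured by = FP, GDP Alexa 633 tracer displaced from anti-GDP antibody, 620/688 nm | evaluation = percent inhibition of Arfgap1-stimulated GTP hydrolysis | replication = single well per compound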
Numbers without * were called inactive.

Chains of the proteins cited; added tags and fusions are not shown.
Melanocortin receptor 4 (Homo sapiens), P32245, UniProt P32245, whole entry, looked up: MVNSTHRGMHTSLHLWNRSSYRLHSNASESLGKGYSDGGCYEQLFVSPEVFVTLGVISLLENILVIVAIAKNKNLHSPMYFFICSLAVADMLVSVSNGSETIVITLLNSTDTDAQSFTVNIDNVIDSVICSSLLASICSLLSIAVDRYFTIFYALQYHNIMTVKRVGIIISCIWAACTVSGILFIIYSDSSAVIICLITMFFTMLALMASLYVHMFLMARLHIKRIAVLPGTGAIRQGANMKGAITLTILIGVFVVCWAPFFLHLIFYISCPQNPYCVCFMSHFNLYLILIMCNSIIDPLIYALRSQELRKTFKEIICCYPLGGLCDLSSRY
ADP-ribosylation factor GTPase-activating protein 1 (Rattus norvegicus), Q62848, UniProt Q62848, whole entry, looked up: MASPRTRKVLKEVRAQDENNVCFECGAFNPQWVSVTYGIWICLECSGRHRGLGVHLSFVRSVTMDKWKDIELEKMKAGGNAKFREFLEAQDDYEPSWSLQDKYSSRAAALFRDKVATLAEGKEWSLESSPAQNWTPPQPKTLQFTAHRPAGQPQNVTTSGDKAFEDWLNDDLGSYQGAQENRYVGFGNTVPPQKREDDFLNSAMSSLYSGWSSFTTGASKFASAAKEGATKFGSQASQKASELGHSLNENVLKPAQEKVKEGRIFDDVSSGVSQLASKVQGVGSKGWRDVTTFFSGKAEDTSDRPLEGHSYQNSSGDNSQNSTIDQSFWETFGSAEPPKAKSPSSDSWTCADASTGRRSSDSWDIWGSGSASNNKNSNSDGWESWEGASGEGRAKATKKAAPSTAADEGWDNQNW

Screening CC1CCN(C(=O)c2nc[nH]c2C(=O)N2CCc3ccccc3C2)CC1 returned NRP1-CendR mod 29*, ASAP1 GAP inh -5, MC4R antagonist 4, UUG fidelity 3, MC4R ag barr -1 and ARFGAP1 inh 11.
CCOC(=O)c1[nH]cnc1C(=O)N1CCC(C)CC1 was read as NRP1-CendR mod -10, ASAP1 GAP inh -8, MC4R antagonist 4, UUG fidelity 2, MC4R ag barr 0 and ARFGAP1 inh -4.
For COc1ccc(NC(=O)c2nc[nH]c2C(=O)N2CCC(C)CC2)cc1 the results were NRP1-CendR mod 25*, ASAP1 GAP inh 2, MC4R antagonist -6, UUG fidelity -22, MC4R ag barr -1 and ARFGAP1 inh -8.
`CC(C)CCn1c(Oc2ccc(Cl)cc2)nc2c1c(=O)n(C)c(=O)n2C` gave NRP1-CendR mod 26*, ASAP1 GAP inh 0, MC4R antagonist 7, MC4R ag barr -1 and ARFGAP1 inh -3.
Screening CCCC(C)NC(=O)CN(Cc1ccco1)S(=O)(=O)c1ccccc1 (centres undefined) returned NRP1-CendR mod 23*, ASAP1 GAP inh 7, MC4R antagonist -3, UUG fidelity -6, MC4R ag barr -2 and ARFGAP1 inh -10.
CCC(C)NS(=O)(=O)c1ccc(S(=O)(=O)N(CC(=O)Nc2ccccc2)Cc2ccco2)cc1 (centres undefined) was read as NRP1-CendR mod -5, ASAP1 GAP inh 17, MC4R antagonist 12, UUG fidelity 7, MC4R ag barr -1 and ARFGAP1 inh -2.
C[C@@H]1CN([C@@H](C)CO)C(=O)Cc2cc(N(C)C)ccc2O[C@@H]1CN(C)C(=O)Nc1ccc(F)cc1 was read as UUG fidelity 2.
`OCCCc1n[nH]c(=S)n1-c1ccccc1` gave NRP1-CendR mod 23*, ASAP1 GAP inh 1, MC4R antagonist 4, MC4R ag barr 0 and ARFGAP1 inh -3.
Cc1ccccc1S(=O)(=O)NCC[C@H]1CC[C@@H](NC(=O)C2CCC2)[C@H](CO)O1 was read as UUG fidelity 2.
`Cc1noc(C)c1NC(=O)N(C)C[C@H]1Oc2ccc(NC(=O)CCCN(C)C)cc2CC(=O)N([C@@H](C)CO)C[C@@H]1C` gave UUG fidelity 30.
Screening COc1ccc(C(=O)Cn2nnc(-c3ccccc3NC(=O)C3CC3)n2)cc1 returned NRP1-CendR mod 33*, ASAP1 GAP inh 7, MC4R antagonist -5, MC4R ag barr 3 and ARFGAP1 inh -1.
`COCC(=O)N(C)C[C@H]1Oc2cc(-c3ccncc3)ccc2S(=O)(=O)N([C@@H](C)CO)C[C@@H]1C` gave UUG fidelity -4.
For CNC[C@@H]1OCCCC[C@H](C)Oc2ccc(NC(=O)c3ccccc3)cc2C(=O)N([C@H](C)CO)C[C@@H]1C the results were UUG fidelity 12.
C[C@@H]1CN([C@H](C)CO)C(=O)c2cc(NC(=O)CCC(F)(F)F)ccc2O[C@@H](C)CCCCO[C@H]1CN(C)C(=O)NC1CCCCC1 was read as UUG fidelity 4.
`CC(C)(CNC(=O)c1ccc(NS(=O)(=O)c2ccc(F)cc2)cc1)N1CCOCC1` gave NRP1-CendR mod -6, ASAP1 GAP inh 6, MC4R antagonist 5, UUG fidelity -3, MC4R ag barr 3 and ARFGAP1 inh 13.
Screening CCOc1ccc(S(=O)(=O)Nc2ccc(C(=O)NCC(C)(C)N3CCOCC3)cc2)cc1 returned NRP1-CendR mod 21*, ASAP1 GAP inh 4, MC4R antagonist -2, MC4R ag barr -1 and ARFGAP1 inh 20.
`CCCCCCCCN1[C@@H](CC(=O)O)c2ccc(C(F)(F)F)cc2S1(=O)=O` gave NRP1-CendR mod 28*, ASAP1 GAP inh -6, MC4R antagonist -1, UUG fidelity -13, MC4R ag barr -1 and ARFGAP1 inh 6.
Screening CCCCCCCCCCCCN1[C@@H](CC(C)=O)c2cc(C(F)(F)F)ccc2S1(=O)=O returned NRP1-CendR mod 9, ASAP1 GAP inh 6, MC4R antagonist 8, UUG fidelity -15, MC4R ag barr 1 and ARFGAP1 inh 2.
`CCCCCCCCCCCCN1[C@@H](CC(C)=O)c2cc(F)ccc2S1(=O)=O` gave NRP1-CendR mod 12, ASAP1 GAP inh 11, MC4R antagonist 8, UUG fidelity -16, MC4R ag barr 0 and ARFGAP1 inh 8.
CC(=O)C[C@H]1c2cc(C(F)(F)F)ccc2S(=O)(=O)N1c1ccc(N(C)C)cc1 was read as NRP1-CendR mod 14, ASAP1 GAP inh -1, MC4R antagonist 0, UUG fidelity -13, MC4R ag barr 0 and ARFGAP1 inh 13.

2 records drawn at random from the list so far:
`CCCCCCCCCCCCN1[C@@H](CC(C)=O)c2cc(F)ccc2S1(=O)=O` gave NRP1-CendR mod 12, ASAP1 GAP inh 11, MC4R antagonist 8, UUG fidelity -16, MC4R ag barr 0 and ARFGAP1 inh 8.
`OCCCc1n[nH]c(=S)n1-c1ccccc1` gave NRP1-CendR mod 23*, ASAP1 GAP inh 1, MC4R antagonist 4, MC4R ag barr 0 and ARFGAP1 inh -3.

Further entries follow.
CCCCCCCCCCCCN1[C@@H](CC(=O)OC)c2cc(F)ccc2S1(=O)=O was read as NRP1-CendR mod 26*, ASAP1 GAP inh 14, MC4R antagonist 6, UUG fidelity 0, MC4R ag barr 0 and ARFGAP1 inh 7.
For CN(C)c1ccc(N2[C@@H](CC(=O)O)c3cc(C(F)(F)F)ccc3S2(=O)=O)cc1 the results were NRP1-CendR mod 25*, ASAP1 GAP inh -14, MC4R antagonist 4, UUG fidelity -18, MC4R ag barr -1 and ARFGAP1 inh -5.
O=C(Nc1cc(F)ccc1F)N1C[C@@H]2[C@H](c3ccccc31)[C@@H](CO)N2C(=O)c1ccccc1 was read as UUG fidelity 1.
Screening COC/C=C/C1=CC2=CC(=O)C(C)(OC(=O)c3cnc4ccccc4n3)C(=O)C2=CN1CCCOC(C)C (centres undefined) returned NRP1-CendR mod 44*, ASAP1 GAP inh -14, MC4R antagonist 6, UUG fidelity -1, MC4R ag barr -1 and ARFGAP1 inh -2.
C=CCN1C=C2C(=O)C(C)(OC(=O)c3cnc4ccccc4n3)C(=O)C=C2C=C1/C=C/COC (centres undefined) was read as NRP1-CendR mod 31*, ASAP1 GAP inh -1, MC4R antagonist 6, UUG fidelity -13, MC4R ag barr -1 and ARFGAP1 inh 4.

Gathered by group: those above containing an aryl methoxy group.
For COc1ccc(NC(=O)c2nc[nH]c2C(=O)N2CCC(C)CC2)cc1 the results were NRP1-CendR mod 25*, ASAP1 GAP inh 2, MC4R antagonist -6, UUG fidelity -22, MC4R ag barr -1 and ARFGAP1 inh -8.
Screening COc1ccc(C(=O)Cn2nnc(-c3ccccc3NC(=O)C3CC3)n2)cc1 returned NRP1-CendR mod 33*, ASAP1 GAP inh 7, MC4R antagonist -5, MC4R ag barr 3 and ARFGAP1 inh -1.
